# Data: patent US7964731B2, “Isotopically marked quinoline derivatives as adenosin A3 receptor ligands” (Sanofi-Aventis, priority 2004, dated 2011)
# By UniProt entry, the sequences of proteins in these tests, tags left out.
# UniProt P0DMS8, whole entry: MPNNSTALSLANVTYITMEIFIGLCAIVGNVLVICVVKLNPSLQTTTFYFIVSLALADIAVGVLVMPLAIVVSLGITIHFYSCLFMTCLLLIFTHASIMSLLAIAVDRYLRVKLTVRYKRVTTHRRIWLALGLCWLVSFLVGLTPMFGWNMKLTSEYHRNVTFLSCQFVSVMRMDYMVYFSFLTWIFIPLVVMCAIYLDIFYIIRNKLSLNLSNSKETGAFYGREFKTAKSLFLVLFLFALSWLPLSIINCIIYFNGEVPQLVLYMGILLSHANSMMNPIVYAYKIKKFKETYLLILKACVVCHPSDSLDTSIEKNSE
# Key:
# [1] = target: T1, human A3 receptors (CHO-hA3 membrane preparation) (Homo sapiens, UniProt P0DMS8); assay: Human adenosine A3 receptor binding in the presence of the radioactive iodine-containing compound of Example 2/a; settings: radioligand of Example 2/a, 4 μg CHO-hA3 preparation, Cheng-Prusoff from IC50; read-out: Ki, the radioligand given in Example 2/a
# [2] = target: T1, human A3 receptors (CHO-hA3 membrane preparation); assay: Human adenosine A3 receptor binding in the presence of [125I]AB-MECA; settings: radioligand [125I]AB-MECA, 4 μg CHO-hA3 preparation, Cheng-Prusoff from IC50
smiles,measurement,setting,value
"C[C@H](Cc1ccccc1)Nc1ncnc2c1ncn2[C@@H]1O[C@H](CO)[C@@H](O)[C@H]1O [R-PIA, N^6-[L-2-phenylisopropyl]adenosine, reference compound]",Ki,[1],150 nM
same,Ki,[2],65 nM
